In assay [1] the target is human serotonin 5-HT2B receptor (Homo sapiens, UniProt P41595). Kind of assay: Radioligand binding assay, human 5-HT2B receptors ([3H]LSD). The following applies: read-out: IC50 (nM) 5-HT2b, Example 16 table.
Assay [2] addresses human serotonin 5-HT2A receptor (Homo sapiens, UniProt P28223). The assay is described as follows: Radioligand binding assay, human 5-HT2A receptors ([3H]Ketanserin). The following applies: read-out: IC50 (nM) 5-HT2a, Example 16 table.
Assay [3] concerns the target human serotonin 5-HT6 receptor (Homo sapiens, UniProt P50406). The assay is described as follows: Radioligand binding assay, human 5-HT6 receptors ([3H]LSD). The following applies: read-out: IC50 (nM) 5-HT6, Example 16 table.
Assay [4] addresses human dopamine D3 receptor (Homo sapiens, UniProt P35462). To be noted: read-out: IC50 (nM) Against Human D3 Receptors; Example 20 table.
Assay [5] concerns the target human serotonin 5-HT2C receptor (Homo sapiens, UniProt P28335). The assay is described as follows: Radioligand binding assay, human 5-HT2C receptors ([3H]Mesulergine). The following applies: read-out: IC50 (nM) 5-HT2c, Example 16 table.

By UniProt entry, the sequences of proteins in these tests, tags left out. Residues count along the entry.
UniProt P41595, whole entry: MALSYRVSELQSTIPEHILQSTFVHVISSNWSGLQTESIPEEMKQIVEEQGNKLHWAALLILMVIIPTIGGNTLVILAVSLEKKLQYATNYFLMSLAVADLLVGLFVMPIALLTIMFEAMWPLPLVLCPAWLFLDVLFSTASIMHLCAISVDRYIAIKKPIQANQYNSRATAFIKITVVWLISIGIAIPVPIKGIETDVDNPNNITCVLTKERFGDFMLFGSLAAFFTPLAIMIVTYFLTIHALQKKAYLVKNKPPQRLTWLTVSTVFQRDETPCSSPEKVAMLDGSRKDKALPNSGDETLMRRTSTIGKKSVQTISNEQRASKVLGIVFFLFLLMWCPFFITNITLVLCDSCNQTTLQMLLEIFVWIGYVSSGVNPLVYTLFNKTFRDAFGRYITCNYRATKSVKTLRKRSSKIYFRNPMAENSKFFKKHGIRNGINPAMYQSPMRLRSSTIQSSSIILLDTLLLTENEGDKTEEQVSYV
UniProt P28223, whole entry: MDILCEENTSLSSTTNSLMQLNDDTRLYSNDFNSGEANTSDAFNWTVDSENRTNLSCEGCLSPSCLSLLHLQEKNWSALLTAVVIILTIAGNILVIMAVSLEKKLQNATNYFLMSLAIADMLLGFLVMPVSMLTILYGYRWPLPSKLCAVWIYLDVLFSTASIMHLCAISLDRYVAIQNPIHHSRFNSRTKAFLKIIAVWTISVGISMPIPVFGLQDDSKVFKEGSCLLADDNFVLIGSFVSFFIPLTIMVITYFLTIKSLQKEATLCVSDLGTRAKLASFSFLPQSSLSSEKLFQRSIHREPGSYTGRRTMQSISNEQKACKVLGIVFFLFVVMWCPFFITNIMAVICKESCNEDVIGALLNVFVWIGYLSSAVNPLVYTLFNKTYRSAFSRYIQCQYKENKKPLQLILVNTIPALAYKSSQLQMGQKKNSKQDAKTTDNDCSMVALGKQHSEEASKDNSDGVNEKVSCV
UniProt P50406, whole entry: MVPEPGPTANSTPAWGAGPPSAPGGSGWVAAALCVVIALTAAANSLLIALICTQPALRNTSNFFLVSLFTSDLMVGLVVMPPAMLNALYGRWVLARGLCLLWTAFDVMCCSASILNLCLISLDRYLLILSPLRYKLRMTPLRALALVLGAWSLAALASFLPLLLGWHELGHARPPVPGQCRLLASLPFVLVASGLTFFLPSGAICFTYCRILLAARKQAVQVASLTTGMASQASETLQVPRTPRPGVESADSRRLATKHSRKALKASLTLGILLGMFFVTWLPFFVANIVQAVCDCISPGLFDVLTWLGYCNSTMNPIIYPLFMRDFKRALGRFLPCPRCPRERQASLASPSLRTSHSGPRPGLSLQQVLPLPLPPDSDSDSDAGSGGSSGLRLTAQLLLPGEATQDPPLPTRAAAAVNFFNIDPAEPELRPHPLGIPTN
UniProt P35462, whole entry: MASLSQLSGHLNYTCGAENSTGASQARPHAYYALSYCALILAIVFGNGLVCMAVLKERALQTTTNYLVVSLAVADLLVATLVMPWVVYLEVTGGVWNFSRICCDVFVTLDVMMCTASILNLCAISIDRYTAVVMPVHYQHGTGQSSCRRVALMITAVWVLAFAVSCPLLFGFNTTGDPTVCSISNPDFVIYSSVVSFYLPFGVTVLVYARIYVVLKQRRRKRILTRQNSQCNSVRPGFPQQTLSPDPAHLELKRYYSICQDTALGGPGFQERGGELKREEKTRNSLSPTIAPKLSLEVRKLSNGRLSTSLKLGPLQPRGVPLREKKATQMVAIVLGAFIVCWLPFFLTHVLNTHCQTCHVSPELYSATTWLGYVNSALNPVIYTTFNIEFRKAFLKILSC
UniProt P28335, 33-458 limits assumed: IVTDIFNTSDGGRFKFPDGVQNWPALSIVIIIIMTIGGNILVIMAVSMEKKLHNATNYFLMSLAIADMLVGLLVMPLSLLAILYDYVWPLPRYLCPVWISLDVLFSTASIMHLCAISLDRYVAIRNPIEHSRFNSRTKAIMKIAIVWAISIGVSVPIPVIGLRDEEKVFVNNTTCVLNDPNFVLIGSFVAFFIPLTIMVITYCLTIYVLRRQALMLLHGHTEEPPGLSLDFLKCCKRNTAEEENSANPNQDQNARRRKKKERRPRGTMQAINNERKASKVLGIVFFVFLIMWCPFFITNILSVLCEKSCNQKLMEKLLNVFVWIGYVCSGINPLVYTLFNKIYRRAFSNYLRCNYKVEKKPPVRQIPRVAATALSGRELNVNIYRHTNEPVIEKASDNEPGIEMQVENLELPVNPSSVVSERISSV

For `CN1CCC(c2nc(C3(c4ccc(Cl)cc4)CCCC3)cs2)CC1`, the IC50 (as a rule, the concentration needed to halve the response being measured) was less than 1000 nM in assay [1]; less than 1000 nM in assay [2]; less than 1000 nM in assay [3]; more than 1000 nM in assay [4]; less than 1000 nM in assay [5].

With `CN1CCC(c2nc(C3(c4ccccc4F)CCCCC3)cs2)CC1`, the IC50 in assay [1], in assay [2], in assay [3], in assay [4] and in assay [5] was less than 1000 nM each time.

For the molecule `CCN(CC)CCCNc1nc(C2(c3ccc(Cl)cc3)CCC2)cs1.O=C(O)CC(O)(CC(=O)O)C(=O)O` [Compound 20, N′-{4-[1-(4-chlorophenyl)cyclobutyl]thiazol-2-yl}-N,N-diethylpropane-1,3-diamine citrate salt], the half-inhibitory concentration (IC50) was less than 1000 nM in assay [1]; less than 1000 nM in assay [2]; more than 1000 nM in assay [3]; less than 1000 nM in assay [4]; less than 100 nM in assay [5].

Values taken from US7087623B2, “Thiazole and other heterocyclic ligands for mammalian dopamine, muscarinic and serotonin receptors and transporters, and methods of use thereof” (Sepracor Inc., priority 2001, dated 2006).
